These results are taken from PubChem BioAssay AID434926 (Sanford-Burnham Center for Chemical Genomics, 2010).

The chains behind the UniProt entries cited, without tags or fusion partners.
UniProt P09923, whole entry: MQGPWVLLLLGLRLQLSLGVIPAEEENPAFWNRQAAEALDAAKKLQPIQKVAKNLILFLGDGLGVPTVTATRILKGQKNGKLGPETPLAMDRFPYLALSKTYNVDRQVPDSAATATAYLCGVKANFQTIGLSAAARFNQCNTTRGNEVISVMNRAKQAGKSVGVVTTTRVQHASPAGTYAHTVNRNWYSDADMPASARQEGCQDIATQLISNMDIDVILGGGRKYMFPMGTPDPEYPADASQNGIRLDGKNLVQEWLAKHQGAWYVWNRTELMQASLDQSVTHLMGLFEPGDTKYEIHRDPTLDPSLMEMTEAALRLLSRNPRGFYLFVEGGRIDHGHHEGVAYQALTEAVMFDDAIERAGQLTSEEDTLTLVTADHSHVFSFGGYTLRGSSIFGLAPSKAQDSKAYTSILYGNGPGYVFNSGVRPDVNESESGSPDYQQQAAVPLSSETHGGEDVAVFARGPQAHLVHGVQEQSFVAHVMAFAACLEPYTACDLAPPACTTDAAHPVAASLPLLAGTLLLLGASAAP

In this experiment the target is Intestinal-type alkaline phosphatase (Homo sapiens) (UniProt P09923). The experiment is described as follows: human IAP activators, confirmation, biochemical, luminescence, single concentration, uHTS hits (AID 434926). The conditions noted are these: purified IAP, CDP-Star luminescence, 30 min; at 8.3 µM; stronger effect = lower value.

SMILES strings stand for the structures. This is a selection; strong and weak results do not stand in their true shares. Active and inactive are the calls of the source.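 How the source made its calls: active means at least twofold enzyme activation in any of six single-dose repeats, which the averaged readout prints as negative percent; inactive means the rest.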

Regarding `COc1ccc(OP(C)(=O)Nc2ccc(Br)cc2)cc1` (stereo unspecified), the activation (%Activity, negative = activation) was inactive: -23.8%.
